ChEMBL document CHEMBL3882738, “Dimethylarginine Dimethylaminohydrolase inhibitors and methods of use thereof” (2014)
Calls of active or inactive are those of the source.

Amino acid sequences for entries named in this document (tags omitted). A change or cut given only in a name is not applied to a line headed by its entry.
UniProt O94760: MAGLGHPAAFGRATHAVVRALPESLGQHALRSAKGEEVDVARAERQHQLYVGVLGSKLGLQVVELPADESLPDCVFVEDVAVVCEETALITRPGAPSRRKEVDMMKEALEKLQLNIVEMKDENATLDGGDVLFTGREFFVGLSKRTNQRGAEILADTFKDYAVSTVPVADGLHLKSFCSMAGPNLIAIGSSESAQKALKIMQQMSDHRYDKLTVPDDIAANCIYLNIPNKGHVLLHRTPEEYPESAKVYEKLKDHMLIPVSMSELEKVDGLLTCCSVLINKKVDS

Experiments:
[1] = molecular target: T1, N(G),N(G)-dimethylarginine dimethylaminohydrolase 1 (Homo sapiens, UniProt O94760); experiment: Inhibition of recombinant human DDAH1 expressed in Escherichia coli BL21 Star (DE3) using ADMA as substrate assessed as decrease in citrulline production after 4 hrs by colorimetric method
[2] = molecular target: T1, N(G),N(G)-dimethylarginine dimethylaminohydrolase 1; experiment: Inhibition of recombinant human DDAH1 expressed in Escherichia coli BL21 Star (DE3) using SMTC as substrate assessed as decrease in L-citrulline and methanethiol production at 50 uM by CPM-based fluorimetric assay
[3] = molecular target: T1, N(G),N(G)-dimethylarginine dimethylaminohydrolase 1; experiment: Inhibition of recombinant human DDAH1 expressed in Escherichia coli BL21 Star (DE3) using ADMA as substrate assessed as decrease in citrulline production at 50 uM after 4 hrs by colorimetric method
[4] = molecular target: T1, N(G),N(G)-dimethylarginine dimethylaminohydrolase 1; experiment: Inhibition of recombinant human DDAH1 expressed in Escherichia coli BL21 Star (DE3) using ADMA as substrate assessed as decrease in citrulline production at 50 uM preincubated with protein followed by substrate addition by colorimetric method

Measured: inhibition

COc1ccnc(C[S+]([O-])c2nc3cc(OC(F)F)ccc3[nH]2)c1OC (centres undefined) [PANTOPRAZOLE]
active: [1] Dose-dependent effect | [2] | [3] | [4]
